Experimental findings from PubChem BioAssay (NCI) are described below.

Where “and” joins values, the source holds several entries; their conditions need not be identical. Identical values can stand only once. Only a part is listed here, and it is no random draw.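 Plates (96-well) were seeded with cells, treated with compound at one concentration, and incubated for 48 hours before percent growth was determined.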 Some structures show a salt or complex split into parts, the way the source records it. Calls of active or inactive are those of the source. The calls were made as follows: active = growth percent below 10; inactive = the rest.

The first assay deals with HOP-62 NSCLC. The assay is described as follows: NCI-60 one-dose screen, 48 h (100 = growth as untreated, 0 = no growth, -100 = all killed). The settings on record: 10 µM.
For `CCCOP(=S)(Cl)OCCC`, the growth was inactive: 111%.

Consider `CN(C)CCS`, for which the growth is inactive: 108% and inactive: 103%.

Regarding `O=C(O)C1(O)c2ccccc2-c2ccccc21`, the growth was inactive: 99.3% and inactive: 93.6%.

Regarding `Nc1cccc(Cl)c1.O=[N+]([O-])c1cc([N+](=O)[O-])c(O)c([N+](=O)[O-])c1`, the growth was inactive: 97.9%.

As for `OCCSCCO`, the growth is inactive: 114%.

Regarding `Nc1cc([As](Cl)Cl)cc(N)c1O`, the growth is inactive: 90.8%.

For the molecule `O=[N+]([O-])N(CCN(CC(Br)([N+](=O)[O-])[N+](=O)[O-])[N+](=O)[O-])CC(Br)([N+](=O)[O-])[N+](=O)[O-]`, the growth is inactive: 90.8%.

With `O=C1N([N+](=O)[O-])CCN1[N+](=O)[O-]`, the growth is inactive: 96.8%.

`CC[N+]([O-])(CC)Cc1ccccc1.O=[N+]([O-])c1cc([N+](=O)[O-])c(S(=O)(=O)O)c([N+](=O)[O-])c1`: the growth was inactive: 111%.

As for `CP(=O)(OCCCl)N(CCCl)CCCl` (stereo not given), the growth was inactive: 92.5%.

For `CN(CCO)CCCl.O=[N+]([O-])c1cc([N+](=O)[O-])c(O)c([N+](=O)[O-])c1`, the growth is inactive: 114%.

Take `CCN(CC)CCOC(=O)C(O)(c1ccccc1)c1cc(C)c(C)c(C)c1C` (stereo not given): the growth is inactive: 84.7%.

As for `CCN(CC)CCOC(=O)C(O)(c1ccccc1)c1cc(C)cc(C)c1C` (stereo not given), the growth is inactive: 95.8%.

Regarding `CCN(C)CC.O=[N+]([O-])c1cc([N+](=O)[O-])c(O)c([N+](=O)[O-])c1`, the growth was inactive: 89%.

With `O=C(Cl)c1c([N+](=O)[O-])cc([N+](=O)[O-])cc1[N+](=O)[O-]`, the growth is inactive: 72.9%.

As to `COc1ccc(C(O)(C(=O)OCCN2CCCCC2)c2ccc(OC)cc2)cc1`, the growth is inactive: 103%.

For `Cc1c([N+](=O)[O-])c(C)c([N+](=O)[O-])c(C)c1[N+](=O)[O-]`, the growth was inactive: 105%.

Take `O=C(OCCN1CCCCCCCC1)C(O)(c1ccccc1)c1ccccc1`: the growth was inactive: 96.5%.

As for `CN/C(N)=N/[N+](=O)[O-]`, the growth was inactive: 110%.

Take `CCOC(=O)Nc1c([N+](=O)[O-])cc([N+](=O)[O-])cc1[N+](=O)[O-]`: the growth is inactive: 107%.

For the molecule `O=[N+]([O-])c1cc([N+](=O)[O-])c(Nc2nnnn2CCO)c([N+](=O)[O-])c1`, the growth is inactive: 115%.

For `Cc1c([N+](=O)[O-])cc([N+](=O)[O-])c(Br)c1[N+](=O)[O-]`, the growth is inactive: 102%.

`CN1CCN(CCOC(=O)C(O)(c2ccccc2)c2ccccc2)CC1`: the growth was inactive: 99.4%.

Turning to `O=[N+]([O-])c1cc([N+](=O)[O-])c(O)c([N+](=O)[O-])c1.c1ccc([I+]c2ccccc2)cc1`, the growth was inactive: 41.7%.

`Nc1cc([N+](=O)[O-])cc([N+](=O)[O-])c1O`: the growth was inactive: 103% and inactive: 90.6%.

For `CC(C)N1CCN(CCOC(=O)C(O)(c2ccccc2)c2ccccc2)CC1`, the growth was inactive: 86.2%.

Regarding `CC(C)N(CCCl)C(C)C`, the growth was inactive: 118%.

Turning to `O=[N+]([O-])OCCOc1ccc([N+](=O)[O-])cc1[N+](=O)[O-]`, the growth was inactive: 105%.

Turning to `O=[N+]([O-])N(CCOC(N(F)F)(N(F)F)N(F)F)CC([N+](=O)[O-])([N+](=O)[O-])[N+](=O)[O-]`, the growth was inactive: 99.4%.

With `NN/C(N)=N/[N+](=O)[O-]`, the growth was inactive: 102%.

The next assay relates to NCI-H460 lung. The assay is described as above. The settings on record: 10 µM.
Turning to `CCCOP(=S)(Cl)OCCC`, the growth is inactive: 104%.

As for `CN(C)CCS`, the growth was inactive: 121% and inactive: 109%.

Take `O=C(O)C1(O)c2ccccc2-c2ccccc21`: the growth is inactive: 102% and inactive: 104%.

Consider `Nc1cccc(Cl)c1.O=[N+]([O-])c1cc([N+](=O)[O-])c(O)c([N+](=O)[O-])c1`, for which the growth was inactive: 110%.

Take `OCCSCCO`: the growth is inactive: 119%.

In the case of `Nc1cc([As](Cl)Cl)cc(N)c1O`, the growth was inactive: 103%.

Consider `O=[N+]([O-])N(CCN(CC(Br)([N+](=O)[O-])[N+](=O)[O-])[N+](=O)[O-])CC(Br)([N+](=O)[O-])[N+](=O)[O-]`, for which the growth was inactive: 106%.

For `O=C1N([N+](=O)[O-])CCN1[N+](=O)[O-]`, the growth is inactive: 103%.

As to `CC[N+]([O-])(CC)Cc1ccccc1.O=[N+]([O-])c1cc([N+](=O)[O-])c(S(=O)(=O)O)c([N+](=O)[O-])c1`, the growth is inactive: 98.4%.

Regarding `CP(=O)(OCCCl)N(CCCl)CCCl` (stereo not given), the growth is inactive: 104%.

Regarding `CN(CCO)CCCl.O=[N+]([O-])c1cc([N+](=O)[O-])c(O)c([N+](=O)[O-])c1`, the growth was inactive: 100%.

As for `CCN(CC)CCOC(=O)C(O)(c1ccccc1)c1cc(C)c(C)c(C)c1C` (stereo not given), the growth is inactive: 101%.

On to `CCN(CC)CCOC(=O)C(O)(c1ccccc1)c1cc(C)cc(C)c1C` (stereo not given), for which the growth was inactive: 112%.

With `CCN(C)CC.O=[N+]([O-])c1cc([N+](=O)[O-])c(O)c([N+](=O)[O-])c1`, the growth is inactive: 107%.

On to `O=C(Cl)c1c([N+](=O)[O-])cc([N+](=O)[O-])cc1[N+](=O)[O-]`, for which the growth is inactive: 90.1%.

Turning to `COc1ccc(C(O)(C(=O)OCCN2CCCCC2)c2ccc(OC)cc2)cc1`, the growth is inactive: 108%.

For the molecule `Cc1c([N+](=O)[O-])c(C)c([N+](=O)[O-])c(C)c1[N+](=O)[O-]`, the growth is inactive: 111%.

With `O=C(OCCN1CCCCCCCC1)C(O)(c1ccccc1)c1ccccc1`, the growth is inactive: 111%.

Turning to `CN/C(N)=N/[N+](=O)[O-]`, the growth was inactive: 110%.

`CCOC(=O)Nc1c([N+](=O)[O-])cc([N+](=O)[O-])cc1[N+](=O)[O-]`: the growth was inactive: 102%.

Consider `O=[N+]([O-])c1cc([N+](=O)[O-])c(Nc2nnnn2CCO)c([N+](=O)[O-])c1`, for which the growth is inactive: 105%.

`Cc1c([N+](=O)[O-])cc([N+](=O)[O-])c(Br)c1[N+](=O)[O-]`: the growth was inactive: 99.7%.

Consider `CN1CCN(CCOC(=O)C(O)(c2ccccc2)c2ccccc2)CC1`, for which the growth is inactive: 106%.

Take `O=[N+]([O-])c1cc([N+](=O)[O-])c(O)c([N+](=O)[O-])c1.c1ccc([I+]c2ccccc2)cc1`: the growth was inactive: 70.9%.

As to `Nc1cc([N+](=O)[O-])cc([N+](=O)[O-])c1O`, the growth was inactive: 139% and inactive: 104%.

On to `CC(C)N1CCN(CCOC(=O)C(O)(c2ccccc2)c2ccccc2)CC1`, for which the growth was inactive: 110%.

As to `CC(C)N(CCCl)C(C)C`, the growth was inactive: 105%.

As to `O=[N+]([O-])OCCOc1ccc([N+](=O)[O-])cc1[N+](=O)[O-]`, the growth is inactive: 107%.

On to `O=[N+]([O-])N(CCOC(N(F)F)(N(F)F)N(F)F)CC([N+](=O)[O-])([N+](=O)[O-])[N+](=O)[O-]`, for which the growth is inactive: 107%.

For `NN/C(N)=N/[N+](=O)[O-]`, the growth was inactive: 119%.
